Laboratory results published in patent US7195901B1 (priority 2004, dated 2007).

Tested on: RcDGAT
Assay: DGAT substrate specificity assay, microsomes of yeast expressing […], 14C-oleoyl-CoA incorporation into TAG
Format: biochemical, Ricinus communis

Substance: 1,2-diricinolein
- increase in amount of TAG product (RRO, OOO, PoPoO) compared to that without exogenous DAG (0.25 mM DAG added, 15 min at 30° C, RRO from diricinolein, OOO from diolein, PoPoO from dipalmitolein): 318 pmol/mg/min
- absolute incorporation of oleate into TAG product (RRO, OOO, PoPoO) (1 mM of DAG, endogenous diolein and dipalmitolein present in the yeast cells): 456 pmol/mg/min
